Data on 5 compounds can be found in ChEMBL document CHEMBL4177600, “Identification of novel PI3K inhibitors through a scaffold hopping strategy” (Bioorg Med Chem Lett, 2017).

The species named for assay [1] is Homo sapiens. Put plainly: Selectivity ratio of Ki(app) for recombinant human full-length N-terminal His6-tagged p110delta/human full-length p85alpha expressed in baculovirus infected Sf21 insect cells to Ki(app) for full-length human P110alpha (1 to 1068 residues)/N-terminal GST-fused p85alpha (1 to 724 residues) expressed in baculovirus expression system.
For assay [2], the species on record is Homo sapiens. In words: Selectivity ratio of Ki(app) for recombinant full-length human N-terminal His6-tagged p110gamma expressed in baculovirus infected Sf21 insect cells to Ki(app) for full-length human P110alpha (1 to 1068 residues)/N-terminal GST-fused p85alpha (1 to 724 residues) expressed in baculovirus expression system.
The species entered for assay [3] is Homo sapiens. Put plainly: Selectivity ratio of Ki(app) for recombinant human GST-tagged mTOR catalytic domain (1360 to 2549 residues) expressed in baculovirus expression system to Ki(app) for full-length human P110alpha (1 to 1068 residues)/N-terminal GST-fused p85alpha (1 to 724 residues) expressed in baculovirus expression system.
Assay [4] is filed under the species Homo sapiens. Put plainly: Selectivity ratio of Ki(app) for p110beta/85alpha (unknown origin) to Ki(app) for full-length human P110alpha (1 to 1068 residues)/N-terminal GST-fused p85alpha (1 to 724 residues) expressed in baculovirus expression system.

With `CS(=O)(=O)N1CCN(Cc2cc3c(N4CCOCC4)nc(-c4cnc(N)nc4)cn3n2)CC1`, the Ratio Ki(app) in the assay filed under Homo sapiens [1] stood at 7.2; in the assay listed under Homo sapiens [2], 49.6; in the assay filed under Homo sapiens [3], 1720; in the assay listed under Homo sapiens [4] it was 49.7.

On to `CS(=O)(=O)N1CCN(Cc2cn3nc(-c4cnc(N)nc4)nc(N4CCOCC4)c3n2)CC1`, for which the Ratio Ki(app) came out at 11.8 in the assay filed under Homo sapiens [1], 26.7 in the assay filed under Homo sapiens [2], 1210 in the assay filed under Homo sapiens [3] and 255 in the assay filed under Homo sapiens [4].

As for `CS(=O)(=O)N1CCN(Cc2nc3c(N4CCOCC4)nc(-c4cnc(N)nc4)cn3n2)CC1`, the Ratio Ki(app) came to 6.3 in the assay listed under Homo sapiens [1], 20.7 in the assay listed under Homo sapiens [2], 1260 in the assay filed under Homo sapiens [3] and 155 in the assay filed under Homo sapiens [4].

For the compound `CS(=O)(=O)N1CCN(Cc2cc3c(N4CCOCC4)nc(-c4cnc(N)nc4)c(Cl)n3n2)CC1`, the Ratio Ki(app) in the assay listed under Homo sapiens [1] was 3.9; in the assay filed under Homo sapiens [2], 7.8; in the assay filed under Homo sapiens [3], 2580; in the assay filed under Homo sapiens [4], 33.4.

As for `CS(=O)(=O)N1CCN(Cc2nc3c(N4CCOCC4)nc(-c4cnc(N)nc4)c(Cl)n3n2)CC1`, the Ratio Ki(app) came out at 0.6 in the assay listed under Homo sapiens [1], 7.7 in the assay listed under Homo sapiens [2], 1480 in the assay filed under Homo sapiens [3] and 51.8 in the assay listed under Homo sapiens [4].
